Results published in patent US20260207578A1, “COMPOUND BASED ON SULFUR/OXYGEN SUBSTITUTED GLUTARIMIDE-BASED ISOINDOLINONE SKELETON AND USE THEREOF” (Gluetacs Therapeutics (Shanghai) Co., LTD., priority 2022, published 2026).

What was measured:
Assay in all cases: Half inhibitory concentration (IC50) against tumor cells, Cell Counting Kit-8
Assay type in all cases: cell-based
CAL-62 = details: Homo sapiens, CAL-62, 96 h, read-out: inhibitory activity (IC50, nM) against tumor cells proliferation
Method: (§1) The tumor cells used herein were cultured in a cell culture medium listed in table A at 37° C. in an incubator with 5% CO2. Prior to experimentation, all cells used were correctly identified by STR profiling, and tested negative for mycoplasma through routine screenings.
(§2) After the cells were treated with the compounds of the present disclosure for a period of time, the cell viability detection reagent was added to the culture medium for cell viability assessment according to the instructions provided with the CCK-8 kit. […] The growth inhibition of the compounds of the present disclosure on cells was plotted by Prism Graphpad software, and the IC50 values of the compounds of the present disclosure were calculated therefrom.

CCRF-CEM = details: Homo sapiens, 96 h, read-out: inhibitory activity (IC50, nM) against tumor cells proliferation
Method: as §1, §2

THP-1 = details: Homo sapiens, THP-1, 96 h, read-out: inhibitory activity (IC50, nM) against tumor cells proliferation
Method: as §1, §2

MV-4-11 = details: Homo sapiens, MV4-11, 96 h, read-out: inhibitory activity (IC50, nM) against tumor cells proliferation
Method: as §1, §2

MDA-MB-231 = details: Homo sapiens, MDA-MB-231, 96 h, read-out: inhibitory activity (IC50, nM) against tumor cells proliferation
Method: as §1, §2

JEKO-1 = details: Homo sapiens, JeKo-1, 96 h, read-out: inhibitory activity (IC50, nM) against tumor cells proliferation
Method: as §1, §2

MM.1S = details: Homo sapiens, MM1.S, 96 h, read-out: inhibitory activity (IC50, nM) against tumor cells proliferation
Method: as §1, §2

Kasumi-1 = details: Homo sapiens, Kasumi 1, 96 h, read-out: inhibitory activity (IC50, nM) against tumor cells proliferation
Method: as §1, §2

Daudi = details: Homo sapiens, 96 h, read-out: inhibitory activity (IC50, nM) against tumor cells proliferation
Method: as §1, §2

MM.1R = details: Homo sapiens, 96 h, read-out: inhibitory activity (IC50, nM) against tumor cells proliferation
Method: as §1, §2

Measured: IC50

Nc1cccc2c1CN(C1CCC(=O)NC1=O)C2=O (stereo not shown) [lenalidomide, reference compound]
> 10000 nM: all assays above
